Experiments:
[1] = target: human C1q (human) (UniProt P02745); experiment: flow cytometry, serum C1q on SK-OV-3 cells opsonised with the mixture
[2] = target: human C1q (human) (UniProt P02745); experiment: flow cytometry, serum C1q on opsonised SK-OV-3 cells, 1.25 µg/ml of each mAb

Substance | MFI of C1q binding [1] [MFI] | MFI of C1q binding [2] [MFI]
1:1 mixture of trastuzumab-H429F and pertuzumab-H429F | 10900 | 6330
1:1 mixture of trastuzumab-WT and pertuzumab-WT |  | 522

— patent publication US20260158160A1
